Data published in patent publication US11844853B2, “Antiperspirant composition” (Conopco, Inc., priority 2018, dated 2023).

Assay: Solubility in water, stated in words

Zinc lysine complex [Example C, Zinc lysine complex [Zn (lysine)2. Cl2.2H2O]]
water solubility: water soluble
